Experimental data taken from publication PMC8258697 (The Journal of Biological Chemistry, 2021).

Protein sequences, listed by entry. Tags and fused reporters are not part of them. Residues count along the entry.
UniProt P19793, 226-462: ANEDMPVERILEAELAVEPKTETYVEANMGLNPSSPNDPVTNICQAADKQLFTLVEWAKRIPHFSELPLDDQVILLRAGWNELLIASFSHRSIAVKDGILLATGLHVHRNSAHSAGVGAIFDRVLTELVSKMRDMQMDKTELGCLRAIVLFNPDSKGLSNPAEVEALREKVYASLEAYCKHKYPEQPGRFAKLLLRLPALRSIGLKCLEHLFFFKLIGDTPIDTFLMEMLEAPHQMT
UniProt P37231, 234-505: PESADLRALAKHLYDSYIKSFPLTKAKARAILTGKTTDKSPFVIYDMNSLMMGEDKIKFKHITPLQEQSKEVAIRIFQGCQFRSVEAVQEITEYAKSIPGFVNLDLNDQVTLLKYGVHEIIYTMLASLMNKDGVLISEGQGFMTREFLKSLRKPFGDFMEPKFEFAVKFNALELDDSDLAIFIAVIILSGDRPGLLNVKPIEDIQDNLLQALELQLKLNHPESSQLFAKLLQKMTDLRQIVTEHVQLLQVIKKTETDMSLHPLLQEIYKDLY

Target: T1, PPARγ:RXRα heterodimer (Homo sapiens, UniProt P19793+P37231)
T1 construct: His10-tag with TEV site (N, cleaved yes); made in house; host or cells: E. coli T7 express (co-expressed with GroEL/ES)
Test: PPARγ:RXRα heterodimer formation HTRF assay, sGFP-RXRα LBD titrated against biotinylated PPARγ LBD coupled to Tb-SA
Assay type: binding

SMILES: CN(CCOc1ccc(CC2SC(=O)NC2=O)cc1)c1ccccn1 (stereo not shown) [Rosi, rosiglitazone]
- reduction of the apparent Kd of heterodimer formation: 2 fold
